Target: Albumin (Homo sapiens, UniProt P02768)
Test: Binding constant against human serum albumin (HSA)

The chains behind the UniProt entries cited, without tags or fusion partners.
UniProt P02768, whole entry: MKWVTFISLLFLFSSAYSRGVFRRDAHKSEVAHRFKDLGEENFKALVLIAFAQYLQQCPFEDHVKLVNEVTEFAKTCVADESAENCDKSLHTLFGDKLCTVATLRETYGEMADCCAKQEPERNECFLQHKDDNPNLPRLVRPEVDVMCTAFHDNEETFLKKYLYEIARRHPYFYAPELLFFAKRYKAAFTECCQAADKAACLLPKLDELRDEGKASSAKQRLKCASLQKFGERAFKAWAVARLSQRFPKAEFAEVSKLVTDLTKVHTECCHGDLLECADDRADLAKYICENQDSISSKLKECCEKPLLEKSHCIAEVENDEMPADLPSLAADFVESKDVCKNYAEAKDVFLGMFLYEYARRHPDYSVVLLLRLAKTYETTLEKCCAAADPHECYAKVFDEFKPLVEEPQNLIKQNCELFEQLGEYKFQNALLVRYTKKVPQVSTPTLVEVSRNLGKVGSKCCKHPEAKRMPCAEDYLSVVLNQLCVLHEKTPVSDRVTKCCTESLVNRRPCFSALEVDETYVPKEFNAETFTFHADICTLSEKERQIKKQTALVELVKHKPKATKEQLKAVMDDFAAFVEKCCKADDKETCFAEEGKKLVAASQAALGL

Log K'	SMILES
0.1	NC(=O)N1c2ccccc2C=Cc2ccccc21 [CARBAMAZEPINE]
1.1	CN(C)CCCN1c2ccccc2Sc2ccc(Cl)cc21 [CHLORPROMAZINE]
0	O=C1NC(=O)C(c2ccccc2)(c2ccccc2)N1 [PHENYTOIN]
